# Measurements published in PubChem BioAssay AID871 (The Scripps Research Institute Molecular Screening Center, 2007).
# This is a selection; strong and weak results do not stand in their true shares. Calls of active or inactive are those of the source.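 Rule for the calls: active = activation above the screen-wide mean of compound activation plus 3 SD (cut at about 130% in these data); inactive = the rest.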
# Experiment: enhancers of STAT3 transcriptional signaling – U3A cells, luciferase, luminescence, MLSCN library, primary screen (AID 871);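 note: 0% = background luminescence of wells with medium and substrate only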
# Details: IL-6 STAT3-luciferase reporter, at 5.6 µM, hits give high values, 100% = signal with IL-6 EC80 alone
# Procedure, shortened: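 Test system: human U3A cells carrying STAT3-luciferase construct; control set: IL-6-only wells as 100% reference; timing: compound pre-incubation 1 h before IL-6, then 6 h stimulation at 37 °C; also added: IL-6 stimulus at 33 ng/mL final; evaluation: % activation versus median of IL-6-stimulated wells; detection: reporter luminescence signal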
row,Compound,activation (% of control)
1,CN(C)c1ccc(C(=O)NCC2(N3CCCCC3)CCCCC2)cc1,inactive: 102%
2,CCN1CCC(Nc2cccc(F)c2)CC1,inactive: 96.2%
3,COc1cc(OC)cc(C(=O)NCC2(N3CCOCC3)CCCCC2)c1,inactive: 103%
4,CCC(CO)(C(=O)OC1CN2CCC1CC2)c1ccccc1 (stereo not given),inactive: 103%
5,CC(C)(C)OC(=O)N1CCC(Nc2ccccc2)CC1,inactive: 103%
6,CCOc1ncccc1C(=O)NCC1(N2CCOCC2)CCCCC1,inactive: 108%
7,O=C(OC1CN2CCC1CC2)C1c2ccccc2C=Cc2ccccc21 (stereo not given),inactive: 106%
8,N/C(=N\O)c1c(N)no[n+]1[O-],inactive: 93.3%
9,COc1ccc(C(=O)NCC2(N3CCOCC3)CCCCC2)cc1OC,inactive: 104%
10,c1ccc(CN2CCC(Nc3ccccc3)CC2)cc1,inactive: 101%
11,N#Cc1ccc(C(=O)NCC2(N3CCCCC3)CCCCC2)cc1,inactive: 93.1%
12,O=C(NCC1(N2CCOCC2)CCCCC1)c1cc(=O)[nH]c2ccccc12,inactive: 106%
13,CN1CCN(CCOC(=O)C(O)(c2ccccc2)c2ccccc2)CC1,inactive: 102%
14,COc1ccc(NC2CCN(C(=O)OC(C)(C)C)CC2)cc1,inactive: 104%
15,N#CC1(Nc2ccccc2)CCN(CCc2ccccc2)CC1,inactive: 104%
16,O=C(NCC1(N2CCCCC2)CCCCC1)c1cccc([N+](=O)[O-])c1,inactive: 104%
17,CN1CCC(Nc2cccc(F)c2)CC1,inactive: 109%
18,CC(C)c1ccc(NC2CCN(C(=O)OC(C)(C)C)CC2)cc1,inactive: 116%
19,COc1ccc(CN(CCCl)CCCl)cc1Cl,inactive: 102%
20,CN(C)c1cccc(C(=O)NCC2(N3CCCCC3)CCCCC2)c1,inactive: 107%
21,O=C(OC1CN2CCC1CC2)C1c2ccccc2Oc2ccccc21 (stereo not given),inactive: 99.2%
22,CCOC(=O)N1CCC(Nc2ccc(OC)cc2)CC1,inactive: 95.2%
23,O=C(NCC1(N2CCOCC2)CCCCC1)c1cc2ccccc2o1,inactive: 112%
24,COc1ccc(C(=O)NCC2(N3CCCCC3)CCCCC2)c(OC)c1OC,inactive: 106%
25,COc1ccc(NC2CCN(CCc3ccccc3)CC2)c(OC)c1,inactive: 103%
